Each structure is given as a SMILES string. Activity calls are given as the source filed them. No cut-off for these calls is given here.

The record followed here is ChEMBL document CHEMBL3853313, “Iminoguanidines as Allosteric Inhibitors of the Iron-Regulated Heme Oxygenase (HemO) of Pseudomonas aeruginosa” (J Med Chem, 2016).

The target in assay [1] is T1, Heme oxygenase (Pseudomonas aeruginosa) (UniProt O69002).
T1 sequence (whole entry): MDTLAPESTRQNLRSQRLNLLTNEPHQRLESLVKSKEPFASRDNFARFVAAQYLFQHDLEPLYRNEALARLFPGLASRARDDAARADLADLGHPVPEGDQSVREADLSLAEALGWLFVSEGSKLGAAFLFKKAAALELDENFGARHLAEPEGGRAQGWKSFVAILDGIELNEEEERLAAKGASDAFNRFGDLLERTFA
The assay is described as follows: Binding affinity to Pseudomonas aeruginosa apo-HemO (92 to 102 residues) by HXMS method.

Assay [2] concerns the target T1, Heme oxygenase (Pseudomonas aeruginosa). In words: Binding affinity to Pseudomonas aeruginosa apo-HemO (76 to 84 residues) by HXMS method.

Consider `CN(C)c1ccc(/C=N/NC(=N)N)cc1.Cl`, for which the outcome in assay [1] and in assay [2] was Active.
